Where a name gives a salt, the structure may show the parent alone.
Legend:
iNOS = iNOS (Homo sapiens, UniProt P35228); test: NOS activity assay, iNOS (L-[3H]citrulline formation); type: biochemical
ecNOS = ecNOS (Homo sapiens, UniProt P29474); test: NOS activity assay, ecNOS (L-[3H]citrulline formation); type: biochemical
ncNOS = ncNOS (Homo sapiens, UniProt P29475); test: biochemical

Row | SMILES | IC50 (iNOS) [µM] | IC50 (ecNOS) [µM] | IC50 (ncNOS) [µM]
1 | NC1=NCC2CCCC12 (centres unmarked) [Table 4: (CH2)3, H, H, H, 2-Imino-3-azabicyclo(3.3.0)octane hydrochloride] | ≤ 10 | ≤ 10 | –
2 | NC1=NCC2CCCCC12 (centres unmarked) [Table 4: (CH2)4, H, H, H, 2-Imino-3-azabicyclo(4.3.0)nonane hydrochloride] | ≤ 10 | ≤ 50 | –
3 | C[C@@H]1CCC(=N)NC1 [Table 5: CH2, H, H, (R)CH3, H, H, H, 5(R)-Methyl-2-iminopiperidine hydrochloride] | – | – | ≤ 10
4 | CC1CC(N)=Nc2ccccc21 (centres unmarked) [Table 5: CH, H, CH3, (CH)4, H, H] | – | ≤ 50 | –

The next lines start with the values.

Row | IC50 (iNOS) [µM] | IC50 (ecNOS) [µM] | IC50 (ncNOS) [µM] | SMILES
5 | – | – | ≤ 10 | C[C@H]1CCC(=N)NC1 [Table 5: CH2, H, H, (S)CH3, H, H, H, 5(S)-Methyl-2-iminopiperidine hydrochloride]
6 | – | – | ≤ 10 | CC1CCC(N)=NC1 (centres unmarked) [Table 5: CH2, H, H, CH3, H, H, H, 2-Imino-5-methylpiperidine hydrochloride]

Reference: patent US5629322A, “Cyclic amidine analogs as inhibitors of nitric oxide synthase” (priority 1995, dated 1997)
